In this data set the test system is human maximum recommended daily dose, FDA database. In words: DSSTox (FDAMDD) FDA Maximum (Recommended) Daily Dose Database. As to conditions: hits give low values. The source says: The Food and Drug Administration (FDA) Center for Drug Evaluation and Research, Office of Pharmaceutical Science, Informatics and Computational Safety Analysis Staff's Maximum Recommended Daily Dose (FDAMDD) database contains values for over 1200 pharmaceuticals listed in Martindale: The Extra Pharmacopoeia (1973, 1983, and 1993) and The Physicians' Desk Reference (1995 and 1999). Some classes of chemicals were excluded from the FDAMDD database due to their unsuitability for most QSAR modeling programs. These were inorganic chemicals, high molecular weight polymers (>5000 Daltons), fibers, salts, mixtures of organic chemicals, and small molecules (<100 Daltons). FDAMDD is the non-proprietary portion of the database that was used in the QSAR analysis reported in the Main Citation. DSSTox FDAMDD has fewer substance records than the original MRDD Source database due to consolidation of partial structures (i.e., complexed entities) into a single record and elimination of duplicate entries. […]
Maximum recommended daily dose (or maximum recommended therapeutic dose) values were determined from pharmaceutical clinical trials that employed an oral route of exposure and daily treatments, usually for 3-12 months. […]

`CC(C)N1CCC(N(C(=O)Cc2ccccc2)c2ccc(Cl)cc2)CC1`: the maximum recommended daily dose (mmol/kg-bw/day) (TherapeuticCategory: cardiac depressant) is 0.018.
Turning to `CCC(=O)N(c1ccccn1)C(C)CN1CCCCC1` (configuration not stated), the maximum recommended daily dose (mmol/kg-bw/day) (TherapeuticCategory: narcotic analgesic) is 0.00908.

The values above are taken from PubChem BioAssay AID1195 (EPA DSSTox, 2008).
